The text below walks through data of patent US9045445B2, “Glycine transporter-1 inhibitors, methods of making them, and uses thereof” (Albany Molecular Research, Inc., priority 2010, dated 2015).

The chains behind the UniProt entries cited, without tags or fusion partners.
UniProt Q9Y345, whole entry: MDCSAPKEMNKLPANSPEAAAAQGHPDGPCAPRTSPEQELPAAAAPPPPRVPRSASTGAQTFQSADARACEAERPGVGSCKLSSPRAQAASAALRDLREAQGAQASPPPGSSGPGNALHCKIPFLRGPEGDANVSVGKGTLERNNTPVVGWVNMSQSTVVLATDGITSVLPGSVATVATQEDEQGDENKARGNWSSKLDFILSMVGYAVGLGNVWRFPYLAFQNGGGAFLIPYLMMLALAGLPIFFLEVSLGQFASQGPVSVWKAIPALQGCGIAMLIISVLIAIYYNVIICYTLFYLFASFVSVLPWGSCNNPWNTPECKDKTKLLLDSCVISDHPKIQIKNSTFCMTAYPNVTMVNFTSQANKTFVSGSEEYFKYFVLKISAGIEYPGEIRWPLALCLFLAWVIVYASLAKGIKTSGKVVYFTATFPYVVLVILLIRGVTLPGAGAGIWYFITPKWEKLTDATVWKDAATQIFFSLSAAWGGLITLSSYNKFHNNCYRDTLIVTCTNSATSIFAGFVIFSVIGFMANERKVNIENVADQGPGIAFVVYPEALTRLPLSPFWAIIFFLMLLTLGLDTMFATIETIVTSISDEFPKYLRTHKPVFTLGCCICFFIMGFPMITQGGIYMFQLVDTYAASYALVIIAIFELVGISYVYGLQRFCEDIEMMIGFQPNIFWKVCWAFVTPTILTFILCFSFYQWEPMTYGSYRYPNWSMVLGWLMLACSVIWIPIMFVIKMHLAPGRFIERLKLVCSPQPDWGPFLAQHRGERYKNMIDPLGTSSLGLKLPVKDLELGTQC
UniProt P48067, whole entry: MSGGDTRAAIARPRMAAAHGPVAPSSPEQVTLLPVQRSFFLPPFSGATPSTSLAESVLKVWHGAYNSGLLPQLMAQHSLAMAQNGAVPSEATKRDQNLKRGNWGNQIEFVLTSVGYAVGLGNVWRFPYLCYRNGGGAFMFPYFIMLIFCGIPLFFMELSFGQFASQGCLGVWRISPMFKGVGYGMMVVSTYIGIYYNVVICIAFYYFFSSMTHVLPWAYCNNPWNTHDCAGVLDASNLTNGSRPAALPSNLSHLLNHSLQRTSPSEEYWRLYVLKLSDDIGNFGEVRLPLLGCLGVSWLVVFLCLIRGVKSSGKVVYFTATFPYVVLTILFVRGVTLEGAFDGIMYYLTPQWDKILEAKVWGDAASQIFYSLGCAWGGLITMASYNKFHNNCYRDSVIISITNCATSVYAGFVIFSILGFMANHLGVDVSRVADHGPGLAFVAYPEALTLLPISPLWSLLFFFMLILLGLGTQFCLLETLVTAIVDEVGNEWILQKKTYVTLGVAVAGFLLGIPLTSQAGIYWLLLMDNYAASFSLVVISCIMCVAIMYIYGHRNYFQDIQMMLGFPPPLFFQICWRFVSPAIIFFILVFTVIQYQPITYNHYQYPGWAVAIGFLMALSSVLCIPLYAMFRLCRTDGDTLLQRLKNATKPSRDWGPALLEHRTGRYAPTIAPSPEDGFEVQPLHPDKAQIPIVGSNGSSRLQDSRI

In assay [1] the target is glycine transporter-2 (GlyT-2) (Homo sapiens, UniProt Q9Y345). In words: [14C]glycine uptake assay in HEK-GlyT-2 transfected cells. Particulars: read-out: GlyT-2 IC50, HEK-GlyT-2 cells. The format is cell-based.
Assay [2] concerns the target glycine transporter-1 (GlyT-1) (Homo sapiens, UniProt P48067). In words: [14C]glycine uptake assay in JAR cells endogenously expressing GlyT-1 (scintillation proximity). Conditions: read-out: GlyT-1 IC50, [14C]glycine 5 μM, 3 hour incubation. A general note: SPA uses beads or plates that emit light when radiolabelled molecules are held near them.

This is a selection: effects in other tests are not listed, and their absence says nothing.

As usually defined, the IC50 is the concentration that gives 50% inhibition. “4-Chloro-N-((1-(4- (propylsulfonyl)piperazin- 1-yl)cyclohexyl)methyl) benzamide Hydrochloride”: the IC50 in assay [1] was above 75000 nM; in assay [2], 175 nM.
